From ChEMBL document CHEMBL4813913, “In vitro identification of imidazo[1,2-a]pyrazine-based antileishmanial agents and evaluation of L. major casein kinase 1 inhibition” (Eur J Med Chem, 2021)

Test: Selectivity index, ratio of IC50 for recombinant human CK1 epsilon expressed in baculovirus infected Sf9 cells to IC50 for recombinant Leishmania major CK1.2 expressed in bacterial expression system by ADP-Glo assay

Row | Compound | Ratio IC50
1 | CN(C)c1nccn2c(-c3ccncc3)c(-c3ccc(F)cc3)nc12 | 1.3
2 | CN(C)c1nccn2c(-c3ccc4[nH]ncc4c3)c(-c3ccc(F)cc3)nc12 | 1.1

Test: Selectivity index, ratio of IC50 for recombinant human CK1 epsilon expressed in baculovirus infected Sf9 cells to IC50 for recombinant Leishmania major CK1.2 expressed in bacterial expression system by radiometric assay

Row | Compound | Ratio IC50
3 | CSc1nccc(-c2c(-c3ccc(F)cc3)nc3c(N)nccn23)n1 | 0.3
4 | Nc1nccc(-c2c(-c3ccc(F)cc3)nc3c(N)nccn23)n1 | 5
5 | CSc1nccc(-c2c(-c3ccc(F)cc3)nc3c(N(C)C)nccn23)n1 | > 10
6 | CSc1nccc(-c2c(-c3ccccc3)nc3c(N(C)C)nccn23)n1 | > 2.8
7 | CN(C)c1nccn2c(-c3ccnc(N)n3)c(-c3ccccc3)nc12 | 30
8 | CN(C)c1nccn2c(-c3ccnc(N)n3)c(-c3ccc(F)cc3)nc12 | 3.8
9 | CSc1nccc(-c2c(-c3ccccc3)nc3c(Cl)nccn23)n1 | 0.6
